{"source": "patent US20230025327A1", "about": "“CONJUGATES OF TUBULYSIN DERIVATIVES AND CELL BINDING MOLECULES AND METHODS OF MAKING” (Hangzhou DAC Biotech Co., Ltd., priority 2019, published 2023)", "settings": "150 mg/Kg single I.V. injection, 12-day experiment, female ICR mice"}
{"substance": "T-DM1", "values": [{"measurement": "recovery trend of body weight at the end of the study", "result": "recovery trend was not observed"}, {"measurement": "weight loss of the mice (body weight reduction)", "setting": "FIG. 8", "result": 24, "unit": "%"}]}
